Consider 3 compounds from US6251950A, “Aliphatic propargylamines as cellular rescue agents” (University of Saskatchewan, priority 1998, dated 2001).

Chains of the proteins cited; added tags and fusions are not shown.
UniProt P19643, whole entry: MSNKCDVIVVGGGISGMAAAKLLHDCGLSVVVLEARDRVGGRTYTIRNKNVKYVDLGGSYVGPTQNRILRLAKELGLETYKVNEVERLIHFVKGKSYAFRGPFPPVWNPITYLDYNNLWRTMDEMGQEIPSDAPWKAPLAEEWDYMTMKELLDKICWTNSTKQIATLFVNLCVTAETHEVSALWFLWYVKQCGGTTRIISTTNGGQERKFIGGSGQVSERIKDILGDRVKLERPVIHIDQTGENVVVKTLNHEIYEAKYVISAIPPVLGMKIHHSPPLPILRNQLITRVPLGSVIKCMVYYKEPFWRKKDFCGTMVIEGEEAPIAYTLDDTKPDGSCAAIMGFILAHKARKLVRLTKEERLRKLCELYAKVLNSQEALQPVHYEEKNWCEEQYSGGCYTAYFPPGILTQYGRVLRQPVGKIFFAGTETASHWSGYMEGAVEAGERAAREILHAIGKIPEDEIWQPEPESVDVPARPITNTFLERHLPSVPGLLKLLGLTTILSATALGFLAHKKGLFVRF

The target of assay [1] is rat liver mitochondrial monoamine oxidase B (Rattus norvegicus, UniProt P19643). The experiment in a line: biochemical. Particulars: for Comparison to most effective MAO-B inhibitor in group: in vitro, relative to most effective inhibitor in group.
In assay [2] the test system is rat brain noradrenergic axons and terminals. Particulars: in vivo; cited from earlier work.

With `C#CCN(C)[C@H](C)CC` [Example R-2BuMP, (R)-N-(2-butyl)-N-methylpropargylamine], in assay [1], half-maximal inhibition (IC50) required 1000 nM and the “Comparison to most effective MAO-B inhibitor in group” value was determined as 100%. Consider `C#CCN(C)[C@@H](C)CC` [Example S-2BuMP, (S)-N-(2-butyl)-N-methylpropargylamine], for which, in assay [1], half-maximal inhibition (IC50) required 2000 nM and the “Comparison to most effective MAO-B inhibitor in group” value is 50%. On to `C#CCN(C)[C@H](C)Cc1ccccc1` [R-deprenyl], for which the DSP-4-induced degeneration entry in assay [2] was “prevent”.
